Laboratory results as given in patent publication US7727980B2, “Tricyclic androgen receptor modulator compounds and methods” (priority 2001, dated 2010).

Sequences of proteins named here, by UniProt entry; tags and fusion partners are left off. A change or cut given only in a name is not applied to a line headed by its entry.
UniProt P10275: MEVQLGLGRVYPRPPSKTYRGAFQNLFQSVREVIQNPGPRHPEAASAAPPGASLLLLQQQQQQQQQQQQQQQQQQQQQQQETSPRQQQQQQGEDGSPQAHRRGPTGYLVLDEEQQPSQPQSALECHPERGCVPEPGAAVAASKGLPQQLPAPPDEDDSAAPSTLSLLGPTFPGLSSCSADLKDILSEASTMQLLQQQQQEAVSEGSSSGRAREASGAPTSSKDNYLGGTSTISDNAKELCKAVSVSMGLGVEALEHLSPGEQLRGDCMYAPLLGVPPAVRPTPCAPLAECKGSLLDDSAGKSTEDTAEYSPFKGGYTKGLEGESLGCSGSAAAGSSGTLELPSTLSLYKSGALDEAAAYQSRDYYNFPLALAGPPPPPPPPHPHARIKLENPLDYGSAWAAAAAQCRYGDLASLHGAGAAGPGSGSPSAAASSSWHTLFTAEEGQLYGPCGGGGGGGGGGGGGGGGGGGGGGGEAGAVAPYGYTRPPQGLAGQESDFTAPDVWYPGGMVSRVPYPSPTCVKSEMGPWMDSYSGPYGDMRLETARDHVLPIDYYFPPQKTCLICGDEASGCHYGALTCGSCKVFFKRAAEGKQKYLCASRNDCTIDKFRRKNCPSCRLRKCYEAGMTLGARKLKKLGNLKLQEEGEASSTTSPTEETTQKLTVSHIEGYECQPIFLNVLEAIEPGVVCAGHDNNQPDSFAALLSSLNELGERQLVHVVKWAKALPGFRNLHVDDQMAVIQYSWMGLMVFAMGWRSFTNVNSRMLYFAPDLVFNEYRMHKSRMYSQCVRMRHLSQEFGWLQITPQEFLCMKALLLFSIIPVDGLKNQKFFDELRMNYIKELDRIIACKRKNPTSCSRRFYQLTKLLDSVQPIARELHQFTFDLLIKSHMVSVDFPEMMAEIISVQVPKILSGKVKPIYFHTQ

Biological target: human AR (Homo sapiens, UniProt P10275)
Assay: Co-transfection assay, AR agonist activity, CV-1 cells
Type: cell-based
Set-up: expressed in transfected cells; host or cells: CV-1 cells (African green monkey kidney fibroblasts), transient transfection with pRShAR
Conditions: percent maximal response relative to reference agonist DHT

Q: Which “AR Agonist CV-1 Cells Efficacy (%)” value does the source give for `CC(C)(O)C(=O)Nc1ccc([N+](=O)[O-])c(C(F)(F)F)c1` [HO-Flut, 2-Hydroxyflutamide, reference compound] here?
A: na (na = not active (i.e. efficacy of <20 and potency of >10,000))
